Drawing on patent publication US7799753B2, “Bisubstrate inhibitors of protein tyrosine kinases as therapeutic agents” (Board of Governers for Higher Education, priority 2004, dated 2010), this text covers IC50 for 2 compounds.

Amino acid sequences for entries named in this document (tags omitted).
UniProt P12931, whole entry, species assumed: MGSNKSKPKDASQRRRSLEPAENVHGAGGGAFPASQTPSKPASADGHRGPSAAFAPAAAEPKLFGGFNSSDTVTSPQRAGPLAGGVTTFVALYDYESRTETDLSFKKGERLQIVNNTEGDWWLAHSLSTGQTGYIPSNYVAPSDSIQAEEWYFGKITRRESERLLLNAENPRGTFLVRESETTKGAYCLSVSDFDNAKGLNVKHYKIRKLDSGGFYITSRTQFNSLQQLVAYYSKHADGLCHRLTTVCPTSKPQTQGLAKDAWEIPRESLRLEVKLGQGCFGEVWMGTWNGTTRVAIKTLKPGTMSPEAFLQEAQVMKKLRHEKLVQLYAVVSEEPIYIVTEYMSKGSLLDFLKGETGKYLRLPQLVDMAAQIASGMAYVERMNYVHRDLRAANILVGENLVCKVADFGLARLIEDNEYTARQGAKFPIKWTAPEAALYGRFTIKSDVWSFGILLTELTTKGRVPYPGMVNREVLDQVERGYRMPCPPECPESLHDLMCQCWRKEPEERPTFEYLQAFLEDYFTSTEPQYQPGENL

The target in the experiment is Src (Homo sapiens, UniProt P12931). Nature of the experiment: Radioactive kinase assay, polyE4Y phosphorylation by Src (peptides, N-heteroaromatics and conjugates). The note with it: modified peptide analogs; read-out: IC50 (μM), Src kinase inhibitory potency (Table 1). The class given is biochemical.

The IC50 is the concentration at which inhibition is half-maximal. Consider `CC[C@H](C)[C@H](N)C(=O)N[C@@H](Cc1ccc(O)cc1)C(=O)N[C@@H](CCCCN)C(=O)N[C@@H](Cc1ccc(O)cc1)C(=O)N[C@@H](Cc1ccc(O)cc1)C(=O)O` [Compound 81, IYKYY], for which the concentration for half-maximal inhibition (IC50) was found to be 211 µM.
The result for `CC[C@H](C)[C@H](NC(=O)[C@H](CS)NC(C)=O)C(=O)N[C@@H](Cc1ccc(O)cc1)C(=O)N[C@@H](CCCCN)C(=O)N[C@@H](Cc1ccc(O)cc1)C(=O)O` [Compound 82, Ac-CIYKY] reads over 100 µM.
